Data reported in PMC6151429 (Molecules : A Journal of Synthetic Chemistry and Natural …, 2017).

Protein sequences, listed by entry. Tags and fused reporters are not part of them.
UniProt P81908, whole entry: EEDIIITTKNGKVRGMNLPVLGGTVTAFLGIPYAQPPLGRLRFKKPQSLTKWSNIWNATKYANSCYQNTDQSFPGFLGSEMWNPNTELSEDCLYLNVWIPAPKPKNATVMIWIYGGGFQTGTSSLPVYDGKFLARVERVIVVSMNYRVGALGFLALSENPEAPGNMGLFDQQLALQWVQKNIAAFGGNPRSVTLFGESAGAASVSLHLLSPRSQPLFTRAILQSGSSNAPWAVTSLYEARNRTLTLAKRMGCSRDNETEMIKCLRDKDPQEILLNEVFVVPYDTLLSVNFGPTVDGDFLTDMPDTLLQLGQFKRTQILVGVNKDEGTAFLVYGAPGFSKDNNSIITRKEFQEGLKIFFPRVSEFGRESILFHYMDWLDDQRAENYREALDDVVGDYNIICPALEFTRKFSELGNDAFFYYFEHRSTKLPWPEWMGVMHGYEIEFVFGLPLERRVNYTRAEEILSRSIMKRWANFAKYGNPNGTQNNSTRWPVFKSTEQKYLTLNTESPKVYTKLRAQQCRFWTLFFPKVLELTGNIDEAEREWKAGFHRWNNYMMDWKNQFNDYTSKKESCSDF

Molecular target: T1, horse serum butyrylcholinesterase (BChE) (Equus caballus, UniProt P81908)
T1 construct: horse serum butyrylcholinesterase (BChE, EC 3.1.1.8); purchased Sigma-Aldrich Co. (St. Louis, MO, USA); host or cells: horse serum
Assay: In vitro ChE enzyme assay (Ellman), BChE
Assay type: biochemical
Details: mean ± SEM of triplicate experiments
Source text: Electric eel acetylcholinesterase (AChE, EC3.1.1.7), horse serum butyrylcholinesterase (BChE, EC 3.1.1.8), acetylthiocholine iodide (ACh), butyrylthioline chloride (BCh), 5,5′-dithobis [2-nitrobenzoic acid] […] The BACE1 FREF assay kit (β-secretase) was purchased from Pan Vera Co. (Madison, WI, USA). ONOO^− was purchased from Molecular Probes Cayman (Ann Arbor, MI, USA). All other chemicals and solvents used were purchased from E. Merck, Fluka, or Sigma- Aldrich, unless otherwise stated.
The inhibitory activity of the isolated coumarins toward ChE was measured using the spectrophotometric method developed by Ellman et al.. ACh and BCh were used as substrates to assay the inhibition of AChE and BChE, respectively. Each reaction mixture consisted of 140 µL sodium phosphate buffer (pH 8.0), 20 µL of test sample solution, and 20 µL of either AChE or BChE solution, which were then combined and incubated for 15 min at room temperature. […] Enzymatic hydrolysis, mediated by AChE or BChE, was monitored according to the formation of yellow 5-thio-2-nitrobenzoate anions at 412 nm for 15 min, which were generated by the reaction of DTNB with thiocholine released from ACh or BCh. All reactions were performed in 96-well plates in triplicate, and recorded using a microplate spectrophotometer (Molecular Devices, Sunnyvale, CA, USA).

`O=c1ccc2ccc(O)cc2o1` [Compound 1, umbelliferone] was tested, and the IC50 was 90.14 ± 0.02 µM.
